According to ChEMBL document CHEMBL4725474, “Discovery of a Selective, Covalent IRAK1 Inhibitor with Antiproliferative Activity in MYD88 Mutated B-Cell Lymphoma” (ACS Med Chem Lett, 2020):

Experiments:
[1] = tested on: BCWM1; conditions: Homo sapiens, dose 20.0 µM, time 72.0 hrs
[2] = tested on: BCWM1; conditions: Homo sapiens, dose 0.2 µM, time 72.0 hrs
[3] = tested on: TMD8; conditions: Homo sapiens, dose 20.0 µM, time 72.0 hrs
[4] = tested on: BCWM1; conditions: Homo sapiens, dose 20.0 µM, time 72.0 hrs; remark: listed apart in the source
[5] = tested on: TMD8; conditions: Homo sapiens, dose 20.0 µM, time 72.0 hrs; remark: listed apart in the source
[6] = tested on: BCWM1; conditions: Homo sapiens, dose 0.2 µM, time 72.0 hrs; remark: listed apart in the source
[7] = tested on: BCWM1; conditions: Homo sapiens, dose 0.632 µM, time 72.0 hrs
[8] = tested on: TMD8; conditions: Homo sapiens, dose 2.0 µM, time 72.0 hrs
[9] = tested on: BCWM1; conditions: Homo sapiens, dose 0.632 µM, time 72.0 hrs; remark: listed apart in the source
[10] = tested on: BCWM1; conditions: Homo sapiens, dose 20.0 µM, time 72.0 hrs; remark: listed apart in the source
[11] = tested on: BCWM1; conditions: Homo sapiens, dose 0.2 µM, time 72.0 hrs; remark: listed apart in the source
[12] = tested on: TMD8; conditions: Homo sapiens, dose 0.2 µM, time 72.0 hrs
[13] = tested on: TMD8; conditions: Homo sapiens, dose 20.0 µM, time 72.0 hrs; remark: listed apart in the source
[14] = tested on: BCWM1; conditions: Homo sapiens, dose 6.325 µM, time 72.0 hrs
[15] = tested on: BCWM1; conditions: Homo sapiens, dose 0.2 µM, time 72.0 hrs; remark: listed apart in the source
[16] = tested on: BCWM1; conditions: Homo sapiens, dose 2.0 µM, time 72.0 hrs
[17] = tested on: BCWM1; conditions: Homo sapiens, dose 0.632 µM, time 72.0 hrs; remark: listed apart in the source
[18] = tested on: TMD8; conditions: Homo sapiens, dose 0.632 µM, time 72.0 hrs
[19] = tested on: BCWM1; conditions: Homo sapiens, dose 2.0 µM, time 72.0 hrs; remark: listed apart in the source
[20] = tested on: TMD8; conditions: Homo sapiens, dose 0.632 µM, time 72.0 hrs; remark: listed apart in the source
[21] = tested on: BCWM1; conditions: Homo sapiens, dose 2.0 µM, time 72.0 hrs; remark: listed apart in the source
[22] = tested on: TMD8; conditions: Homo sapiens, dose 6.325 µM, time 72.0 hrs
[23] = tested on: TMD8; conditions: Homo sapiens, dose 2.0 µM, time 72.0 hrs; remark: listed apart in the source
[24] = tested on: TMD8; conditions: Homo sapiens, dose 0.2 µM, time 72.0 hrs; remark: listed apart in the source
[25] = tested on: BCWM1; conditions: Homo sapiens, dose 6.325 µM, time 72.0 hrs; remark: listed apart in the source
[26] = tested on: BCWM1; conditions: Homo sapiens, dose 0.632 µM, time 72.0 hrs; remark: listed apart in the source
[27] = tested on: TMD8; conditions: Homo sapiens, dose 2.0 µM, time 72.0 hrs; remark: listed apart in the source
[28] = tested on: BCWM1; conditions: Homo sapiens, dose 6.325 µM, time 72.0 hrs; remark: listed apart in the source
[29] = tested on: BCWM1; conditions: Homo sapiens, dose 2.0 µM, time 72.0 hrs; remark: listed apart in the source
[30] = tested on: TMD8; conditions: Homo sapiens, dose 0.2 µM, time 72.0 hrs; remark: listed apart in the source
[31] = tested on: TMD8; conditions: Homo sapiens, dose 20.0 µM, time 72.0 hrs; remark: listed apart in the source
[32] = tested on: TMD8; conditions: Homo sapiens, dose 6.325 µM, time 72.0 hrs; remark: listed apart in the source
[33] = tested on: BCWM1; conditions: Homo sapiens, dose 2.0 µM, time 72.0 hrs; remark: listed apart in the source
[34] = tested on: TMD8; conditions: Homo sapiens, dose 0.2 µM, time 72.0 hrs; remark: listed apart in the source
[35] = tested on: BCWM1; conditions: Homo sapiens, dose 20.0 µM, time 72.0 hrs; remark: listed apart in the source
[36] = tested on: TMD8; conditions: Homo sapiens, dose 6.325 µM, time 72.0 hrs; remark: listed apart in the source
[37] = tested on: BCWM1; conditions: Homo sapiens, dose 20.0 µM, time 72.0 hrs; remark: listed apart in the source
[38] = tested on: TMD8; conditions: Homo sapiens, dose 2.0 µM, time 72.0 hrs; remark: listed apart in the source
[39] = tested on: TMD8; conditions: Homo sapiens, dose 6.325 µM, time 72.0 hrs; remark: listed apart in the source
[40] = tested on: TMD8; conditions: Homo sapiens, dose 0.632 µM, time 72.0 hrs; remark: listed apart in the source
[41] = tested on: TMD8; conditions: Homo sapiens, dose 0.632 µM, time 72.0 hrs; remark: listed apart in the source
[42] = tested on: BCWM1; conditions: Homo sapiens, dose 0.632 µM, time 72.0 hrs; remark: listed apart in the source
[43] = tested on: BCWM1; conditions: Homo sapiens, dose 6.325 µM, time 72.0 hrs; remark: listed apart in the source
[44] = tested on: BCWM1; conditions: Homo sapiens, dose 0.2 µM, time 72.0 hrs; remark: listed apart in the source
[45] = tested on: BCWM1; conditions: Homo sapiens, dose 6.325 µM, time 72.0 hrs; remark: listed apart in the source

C=CC(=O)Nc1cccc(C(=O)Nc2ccc(NC(=O)c3cccc(-c4ccn[nH]4)n3)cc2)c1
CI [1]: 0.761 | CI [2]: 0.561 | CI [3]: 0.025 | CI [4]: 0.663 | CI [5]: 0.035 | CI [6]: 0.397 | CI [7]: 0.982 | CI [8]: 0.082 | CI [9]: 0.557 | CI [10]: 0.752 | CI [11]: 0.32 | CI [12]: 0.232 | CI [13]: 0.193 | CI [14]: 0.556 | CI [15]: 0.375 | CI [16]: 0.572 | CI [17]: 0.743 | CI [18]: 0.179 | CI [19]: 0.605 | CI [20]: 0.321 | CI [21]: 1.1 | CI [22]: 0.022 | CI [23]: 0.375 | CI [24]: 1.11 | CI [25]: 0.577 | CI [26]: 0.622 | CI [27]: 0.343 | CI [28]: 0.488 | CI [29]: 0.734 | CI [30]: 0.649 | CI [31]: 0.066 | CI [32]: 0.014 | CI [33]: 1.05 | CI [34]: 0.387 | CI [35]: 0.958 | CI [36]: 0.08 | CI [37]: 1.04 | CI [38]: 0.115 | CI [39]: 0.126 | CI [40]: 0.485 | CI [41]: 0.914 | CI [42]: 0.573 | CI [43]: 0.454 | CI [44]: 0.428 | CI [45]: 0.424
